Source: patent publication US8541572B2
Like-named read-outs stand apart in the source and are kept apart here.

Amino acid sequences for entries named in this document (tags omitted). Residues count along the entry.
UniProt P78536, 215-477 S266A/N452Q: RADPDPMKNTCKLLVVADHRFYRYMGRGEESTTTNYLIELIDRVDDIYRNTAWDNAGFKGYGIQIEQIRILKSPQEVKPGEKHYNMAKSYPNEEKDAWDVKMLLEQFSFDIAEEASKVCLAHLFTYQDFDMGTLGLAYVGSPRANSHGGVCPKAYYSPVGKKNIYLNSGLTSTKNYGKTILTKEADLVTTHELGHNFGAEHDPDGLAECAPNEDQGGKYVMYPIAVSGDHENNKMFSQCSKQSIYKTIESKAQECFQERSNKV

Biological target: recombinant human TACE catalytic domain (rhTACEc) (Homo sapiens (Human), UniProt P78536, N452Q/S266A)
Assay: TACE kinetic FRET assay (cleavage of internally quenched peptide substrate TNF-FRET 2), Ki
[1] = recombinant human TACE catalytic domain, FRET assay

Row | Compound | Ki [1] [nM] | further results
1 | CCN1CCN(c2cccc(-c3ccc(C#C[C@]4(CN5Cc6ccc(OC)c(F)c6C5=O)NC(=O)NC4=O)cc3F)n2)CC1 [Compound 992] | 0.35 | 
2 | COc1ccc2c(c1)CCN(C[C@@]1(C#Cc3ccc(C(=NO)N4CCCN(C)CC4)cc3)NC(=O)NC1=O)C2=O [Compound 2317] |  | Ki (TACE): 0.48 nM
3 | COc1ccc2c(c1)C(=O)N(C[C@@]1(C#Cc3ccc(C(=NO)N4CCOCC4)cc3)NC(=O)NC1=O)C2 [Compound 941] |  | Ki: 0.13 nM
4 | COc1ccc2c(c1)C(=O)N(C[C@@]1(C#Cc3ccc(C(=O)N4CCN(C5CCCCC5)CC4)cc3)NC(=O)NC1=O)C2 [Compound 962] | 0.452 | 
5 | COc1ccc2c(c1)C(=O)N(C[C@@]1(C#Cc3ccc(C(=NO)N4CCCC4)cc3)NC(=O)NC1=O)C2 [Compound 942] |  | Ki: 0.19 nM
6 | COc1ccc2c(c1)C(=O)N(C[C@@]1(C#Cc3ncc(C(=NO)N4CCN(c5cnccn5)CC4)cc3OC)NC(=O)NC1=O)C2 [Compound 1924] |  | Ki: 0.25 nM
7 | COc1ccc2c(c1)C(=O)N(C[C@@]1(C#Cc3ccc4c(c3)c(O)nn4C)NC(=O)NC1=O)C2 [Compound 712] | 0.253 | 
8 | COc1ccc2c(c1)C(=O)N(C[C@@]1(C#Cc3ccc(C(=NO)N4CCOCC4)s3)NC(=O)NC1=O)C2 [Compound 952] |  | Ki: 0.21 nM
9 | COc1ccc2c(c1F)C(=O)N(C[C@@]1(C#Cc3ccc(CN4CCSCC4)nc3)NC(=O)NC1=O)C2 [Compound 966] | 0.527 | 
10 | COc1ccc2c(c1F)C(=O)N(C[C@@]1(C#Cc3ccc(CN4CCCCC4)nc3)NC(=O)NC1=O)C2 [Compound 967] | 1.21 | 
11 | COc1ccc2c(c1)C(=O)N(C[C@@]1(C#Cc3ccc(CC4CCN(C)CC4)nc3)NC(=O)NC1=O)C2 [Compound 739] | 0.47 | 
12 | COc1ccc2c(c1)C(=O)N(CC1(C#Cc3cccnc3NCCN(C)C)NC(=O)NC1=O)C2 (stereo not drawn) [Compound 2286] |  | Ki (TACE): 0.83 nM
13 | COc1ccc2c(c1)C(=O)N(C[C@@]1(C#Cc3ccc(-c4ccc(-c5cccc(N6CCSCC6)n5)cc4)cc3)NC(=O)NC1=O)C2 [Compound 1000] | 10.3 | 
14 | CSc1ccc2c(c1)C(=O)N(C[C@@]1(C#Cc3cccnc3)NC(=O)NC1=O)C2 [Compound 312] | 0.391 | 
15 | COc1ccc2c(c1)C(=O)N(C[C@@]1(C#Cc3ccc4oc(C5(C)NC(=O)NC5=O)cc4c3)NC(=O)NC1=O)C2 (stereo partly drawn) [Compound 909] |  | Ki (TACE): 0.18 nM
16 | CCN1CCN(c2ccc(O)c(-c3ccc(C#C[C@]4(CN5Cc6ccc(OC)cc6C5=O)NC(=O)NC4=O)cc3)n2)CC1 [Compound 936] |  | Ki (TACE): 0.093 nM
17 | COc1ccc2c(c1)C(=O)N(C[C@@]1(C#Cc3ccc(-c4cn[nH]c4)nc3)NC(=O)NC1=O)C2 [Compound 2292] |  | Ki (TACE): 0.19 nM
18 | COc1ccc2c(c1)C(=O)N(C[C@@]1(C#Cc3ccc(-c4ncccc4O)cc3)NC(=O)NC1=O)C2 [Compound 934] |  | Ki (TACE): 0.074 nM
19 | COc1ccc2c(c1)C(=O)N(C[C@@]1(C#Cc3ccc(-c4nc(-c5cnn(C)c5)ccc4O)cc3)NC(=O)NC1=O)C2 [Compound 973] | 0.0524 | 
20 | COc1ccc2c(c1)C(=O)N(C[C@@]1(C#Cc3ccc(C4(C)NC(=O)NC4=O)s3)NC(=O)NC1=O)C2 (stereo partly drawn) [Compound 907] |  | Ki (TACE): 0.44 nM

Row | Compound | Ki [1] [nM] | further results
21 | COc1ccc2c(c1)C(=O)N(C[C@@]1(C#Cc3ccc(C(=O)N4CCN(C5CC5)CC4)cc3)NC(=O)NC1=O)C2 [Compound 961] | 0.382 | 
22 | CCN1CCN(Cc2ccc(C#C[C@]3(CN4Cc5ccc(OC)c(F)c5C4=O)NC(=O)NC3=O)cc2F)CC1 [Compound 983] | 0.652 | 
23 | COc1ccc2c(c1)C(=O)N(C[C@@]1(C#Cc3ccc(C(=O)NS(C)(=O)=O)nc3)NC(=O)NC1=O)C2 [Compound 902] |  | Ki (TACE): 1.67 nM
24 | COc1ccc2c(c1)C(=O)N(C[C@@]1(C#Cc3ccc(-c4cn[nH]c4N)cc3)NC(=O)NC1=O)C2 [Compound 2296] |  | Ki (TACE): 0.62 nM
25 | COc1ccc2c(c1)C(=O)N(C[C@@]1(C#Cc3ccc(CN4CCN(c5nccs5)CC4)cc3)NC(=O)NC1=O)C2 [Compound 980] | 0.49 | 
26 | COc1ccc2c(c1F)C(=O)N(C[C@@]1(C#Cc3ccc(CN4CCc5ccc(F)cc5C4)nc3)NC(=O)NC1=O)C2 [Compound 968] | 0.73 | 
27 | COc1ccc2c(c1)C(=O)N(C[C@@]1(C#Cc3cncc(C(=NO)N4CCCN(C)CC4)c3)NC(=O)NC1=O)C2 [Compound 924] |  | Ki: 0.71 nM
28 | COc1ccc2c(c1)C(=O)N(C[C@@]1(C#Cc3cccnc3N3CCOCC3)NC(=O)NC1=O)C2 [Compound 2287] |  | Ki (TACE): 0.19 nM
29 | COc1ccc2c(c1)C(=O)N(C[C@@]1(C#Cc3cccnc3-c3cccnc3)NC(=O)NC1=O)C2 [Compound 2270] |  | Ki (TACE): 0.31 nM
30 | COc1ccc2c(c1)C(=O)N(C[C@@]1(C#Cc3cccnc3-c3cnn(C)c3)NC(=O)NC1=O)C2 [Compound 2263] |  | Ki (TACE): 0.2 nM
31 | CCCCN1CCN(C(=NO)c2ccc(C#C[C@]3(CN4Cc5ccc(OC)cc5C4=O)NC(=O)NC3=O)cc2)CC1 [Compound 925] |  | Ki (TACE): 0.093 nM
32 | COc1ccc2c(c1)CCN(C[C@@]1(C#Cc3ccc4c(c3)CCCC43NC(=O)NC3=O)NC(=O)NC1=O)C2=O (stereo partly drawn) [Compound 2321] |  | Ki: 0.52 nM
33 | COc1ccc2c(c1F)C(=O)N(C[C@@]1(C#Cc3ccc(CN4CCN(c5ccncc5)CC4)nc3)NC(=O)NC1=O)C2 [Compound 979] | 0.77 | 
34 | COc1ccc2c(c1)C(=O)N(C[C@@]1(C#Cc3cncc(C(=O)NN)c3)NC(=O)NC1=O)C2 [Compound 2255] |  | Ki (TACE): 0.534 nM
35 | CNC(=O)C1(c2ccc(C#C[C@]3(CN4Cc5ccc(OC)cc5C4=O)NC(=O)NC3=O)cc2)CC1 [Compound 2261] |  | Ki (TACE): 0.3 nM
36 | COc1ccc2c(c1)C(=O)N(C[C@@]1(C#Cc3ccc(-c4cc(N)[nH]n4)cc3)NC(=O)NC1=O)C2 [Compound 747] | 0.419 | 
37 | COc1ccc2c(c1)C(=O)N(C[C@@]1(C#Cc3ccc(-c4nc(-c5cccnc5)ccc4O)cc3)NC(=O)NC1=O)C2 [Compound 971] | 0.0651 | 
38 | COc1ccc2c(c1)C(=O)N(C[C@@]1(C#Cc3ccc(C(O)C4CCN(C)CC4)cc3)NC(=O)NC1=O)C2 (stereo partly drawn) [Compound 500] | 0.408 | 
39 | COc1ccc2c(c1)C(=O)N(CC1(C#Cc3cccnc3N3CCN(C)CC3)NC(=O)NC1=O)C2 (stereo not drawn) [Compound 2285] |  | Ki (TACE): 0.66 nM

Further lines, with some results ahead:

Row | Ki [1] [nM] | Compound | further results
40 | 0.512 | COc1ccc2c(c1)C(=O)N(C[C@@]1(C#Cc3ccc(-n4cncn4)cc3)NC(=O)NC1=O)C2 [Compound 2228] | 
41 | 0.91 | COc1ccc2c(c1)C(=O)N(C[C@@]1(C#Cc3c(C)ncc(C(=O)O)c3O)NC(=O)NC1=O)C2 [Compound 2232] | 
42 | 0.5 | COc1ccc2c(c1)C(=O)N(C[C@@]1(C#Cc3ccc(N4CCC(=O)CC4)nc3)NC(=O)NC1=O)C2 [Compound 2211] | 
43 | 0.19 | COc1ccc2c(c1)C(=O)N(C[C@@]1(C#Cc3ccc(Nc4c(NCCN5CCOCC5)c(=O)c4=O)cc3)NC(=O)NC1=O)C2 [Compound 1306] | 
44 | 0.29 | CCNc1nnc(-c2ccc(C#C[C@]3(CN4Cc5ccc(OC)cc5C4=O)NC(=O)NC3=O)cc2)o1 [Compound 1920] | 
45 | 0.03 | COc1ccc2c(c1)C(=O)N(C[C@@]1(C#Cc3cncc(-c4cn[nH]c4)c3)NC(=O)NC1=O)C2 [Compound 2207] | 
46 | 3.71 | COc1ccc2c(c1)C(=O)N(C[C@@]1(C#Cc3nc(-c4n[nH]c(=O)n4C4CCN(C)CC4)ccc3OC)NC(=O)NC1=O)C2 [Compound 1900] | 
47 | 0.32 | COc1ccc2c(c1)C(=O)N(C[C@@]1(C#Cc3cncc(-c4ccc(O)c(-c5cn[nH]c5)n4)c3)NC(=O)NC1=O)C2 [Compound 1707] | 
48 | 0.33 | COc1ccc2c(c1)C(=O)N(C[C@@]1(C#Cc3ccc(-c4nnc(N)o4)cc3)NC(=O)NC1=O)C2 [Compound 1919] | 
49 | 0.93 | COc1ccc2c(c1)C(=O)N(C[C@@]1(C#Cc3nc(-c4cnc(N(C)C)nc4)ccc3OC)NC(=O)NC1=O)C2 [Compound 1510] | 
50 | 0.25 | COc1ccc2c(c1)C(=O)N(C[C@@]1(C#Cc3ccc(CCNC(=O)C(F)(F)F)s3)NC(=O)NC1=O)C2 [Compound 2221] | 
51 | 0.63 | COc1ccc2c(c1)C(=O)N(C[C@@]1(C#Cc3ccc(C4=NCCN4)cc3)NC(=O)NC1=O)C2 [Compound 2222] | 
52 | 0.81 | COc1ccc2c(c1)C(=O)N(C[C@@]1(C#Cc3ccc(C4(CN5Cc6cc(O)ccc6C5=O)NC(=O)NC4=O)cc3)NC(=O)NC1=O)C2 (stereo partly drawn) [Compound 2216] | 
53 | 1.28 | COc1ccc2c(c1)C(=O)N(C[C@@]1(C#Cc3ccc(-c4ccc(F)cc4O)nc3)NC(=O)NC1=O)C2 [Compound 1316] | 
54 | 0.94 | COc1ccc2c(c1)C(=O)N(C[C@@]1(C#Cc3cncc(-c4ccc(C(N)=O)cc4)c3)NC(=O)NC1=O)C2 [Compound 2208] | 
55 | 0.33 | COc1ccc2c(c1)C(=O)N(C[C@@]1(C#Cc3ccc(N4CCNC4=O)cc3)NC(=O)NC1=O)C2 [Compound 1150] | 
56 | 0.754 | CCN1CCN(c2n[nH]c3ccc(C#C[C@]4(CN5Cc6ccc(OC)cc6C5=O)NC(=O)NC4=O)cc23)CC1 [Compound 2238] | 
57 | 0.58 | COc1ccc2c(c1)C(=O)N(C[C@@]1(C#Cc3ccc(C(c4ccc[nH]4)c4ccc[nH]4)cc3)NC(=O)NC1=O)C2 [Compound 2201] | 
58 | 0.426 | COc1ccc(N2CCC2=O)nc1C#C[C@]1(CN2Cc3ccc(OC)c(F)c3C2=O)NC(=O)NC1=O [Compound 1508] | 
59 | 0.52 | COc1ccc2c(c1)C(=O)N(C[C@@]1(C#Cc3ccc(-n4cnc(CCNC(C)=O)c4)cc3)NC(=O)NC1=O)C2 [Compound 1120] | 
60 | 0.75 | COc1ccc2c(c1)C(=O)N(C[C@@]1(C#Cc3ccc(C4=NCCN4)c(C)c3)NC(=O)NC1=O)C2 [Compound 1140] | 
61 | 0.55 | COc1ccc2c(c1)C(=O)N(C[C@@]1(C#Cc3ccc(CCN)cc3)NC(=O)NC1=O)C2 [Compound 2202] | 
62 | 2.35 | COc1ccc2c(c1Cl)C(=O)N(CC1(C#Cc3cccnc3)NC(=O)NC1=O)C2 (stereo not drawn) [Compound 2247] | 
63 | 0.73 | COc1ccc2c(c1)C(=O)N(C[C@@]1(C#Cc3nc(-c4cccc(O)c4)ccc3OC)NC(=O)NC1=O)C2 [Compound 1922] | 
64 | 0.11 | COc1ccc2c(c1)C(=O)N(C[C@@]1(C#Cc3ccccc3C=O)NC(=O)NC1=O)C2 [Compound 1918] | 
65 | 0.56 | COc1ccc2c(c1)C(=O)N(C[C@@]1(C#Cc3ccc(C(CN)N4CCC(N)C4)cc3)NC(=O)NC1=O)C2 (stereo partly drawn) [Compound 1705] | 
66 | 0.25 | COc1ccc2c(c1)C(=O)N(C[C@@]1(C#Cc3ccc4[nH]nc(N)c4c3)NC(=O)NC1=O)C2 [Compound 2237] | 
